# Source: PubChem BioAssay
# MITF TRPM1 HTS = increases MITF-driven TRPM1 promoter luciferase signal. SK-MEL-5 TRPM1-promoter luciferase, 24 h; % of positive control, neutral wells = 0. activation, % at 12.5 µM. 300,000 tested, 0.75% active;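 active = mean activation of at least 80% with every replicate also reaching 80%; inconclusive = mean reaches 80% but some replicate falls short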
# Wnt bcat act = activators of Wnt/beta-catenin signaling; Wnt/beta-catenin reporter cell assay, activator, plate reader; activation, % at 9.35 µM; 300,000 tested, 1.2% active; AID 743398; in the data active = activation above about 30%, passing the limit was not always enough; inconclusive = no clear call, values can overlap the other calls
# esBAF inh = inhibitors of esBAF chromatin remodeling in mouse ES cells; 350,000 tested, 2% active; reporter increase, % at 12.5 µM; Bmi1-luciferase knock-in reporter, 24 h; 100% = twice the neutral-well signal; in the data active = activation above about 40%; inconclusive = no clear call, values can overlap the other calls;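 also: a rise in the Bmi1 reporter signal indicates esBAF inhibition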
# UUG fidelity = alters start codon recognition fidelity in yeast; AID 602363; activity score, % at 18.7 µM; 350,000 tested, 0.13% active; S. cerevisiae UUG-firefly luciferase reporter, luminescence/redox ratio;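 active means replicate mean at a twofold rise or more, about +100% in these data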;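 further: firefly luciferase made from a UUG start codon reports start codon fidelity; reporter light over untreated wells divided by growth signal over untreated wells; some hits fall short of that in this replicate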
# PglD inh = blocks C. jejuni PglD acetyltransferase activity; purified PglD enzyme, DTNB colorimetric CoA detection; inhibition, % at 12.5 µM; 360,000 tested, 0.098% active; AID 602405; in the data active = inhibition above about 16%, passing the limit was not always enough; inconclusive = no clear call, values can overlap the other calls
# miR-122 sensor = inhibitors of miR-122 in Huh7 cells; activation (reporter increase), % at 12.5 µM; Huh7 miR-122 Renilla luciferase sensor, 48 h; neutral wells = 0, positive control = 100; AID 602342; 340,000 tested, 0.3% active;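 active = mean replicate activation score at least 90 and every replicate individually at or above 90; inconclusive = only one of the two criteria met; inactive = neither criterion met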;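 also: higher luciferase means less miR-122 activity so hits act as miR-122 inhibitors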
# Hits are given with their value; – = inactive; ? = inconclusive; · = no result given. Rows were chosen to be rich in hits. Some 2.8% of all compounds tested hit in one or more screens of this group.
SMILES,MITF TRPM1 HTS,Wnt bcat act,esBAF inh,UUG fidelity,PglD inh,miR-122 sensor
Cc1cccc(-c2cc3nc4c(c(N5CCOCC5)n3n2)CCCC4)c1,–,–,–,–,–,–
Cc1cccc(-c2cc3nc4c(c(N5CCC6(CC5)OCCO6)n3n2)CCCC4)c1,91.1,–,77.6,–,–,–
CO[C@H]1CN(C)C(=O)c2cc(NC(=O)c3cc(C)on3)ccc2OC[C@@H](C)N(C)C[C@@H]1C,·,·,–,–,–,–
COC(=O)C[C@@H]1C[C@H]2c3cc(NC(=O)NC4CCCC4)ccc3O[C@H]2[C@@H](CO)O1,·,·,–,·,–,–
CCN=c1scc(-c2ccco2)n1/N=C/c1ccc(OC)c(O)c1,–,39.8,53.9,–,–,–
CCN=c1scc(-c2ccco2)n1/N=C/c1ccc(O)cc1,·,·,–,–,–,–
C[C@@H]1CN([C@H](C)CO)C(=O)Cc2cc(NC(=O)Cc3ccccc3)ccc2O[C@H]1CN(C)C(=O)Nc1ccc(C(F)(F)F)cc1,·,·,–,–,–,–
Cc1cc(C)c(C)c(S(=O)(=O)NC2CCN(Cc3ccccc3)CC2)c1C,–,–,–,–,–,216.3
COc1cccc(-c2nnc(NC(C)=O)o2)c1,–,–,–,–,–,–
Cc1ccc(-c2nnc(-c3ccc4ccccc4c3)o2)cc1,–,–,54.3,·,·,–
COc1cccc(-c2nnc(-c3ccc(C(F)(F)F)cc3)o2)c1,·,–,54.9,–,–,–
COc1cccc(-c2nnc(-c3ccc4ccccc4c3)o2)c1,–,51.1,·,–,–,–
COCC#Cc1cnc2c(c1)C(=O)N([C@H](C)CO)C[C@@H](C)[C@H](CN(C)C(=O)c1ccc(F)cc1)O2,·,·,–,–,–,–
CS(=O)(=O)Nc1ccc2c(c1)[C@H]1C[C@H](CC(=O)NCc3cccc(F)c3)O[C@H](CO)[C@H]1O2,·,·,–,–,–,–
CN(C)CC(=O)Nc1ccc2c(c1)[C@H]1C[C@@H](CC(=O)NCCc3ccccc3)O[C@H](CO)[C@H]1O2,·,·,–,–,–,–
CC1CCN(C(=O)CSc2nc3ccccc3[nH]2)CC1,?,–,51.0,–,–,·
O=C(CSc1ccccn1)c1ccc2c(c1)OCO2,·,47.3,51.1,–,–,–
O=C(CSc1nc2ccccc2[nH]1)c1ccc2c(c1)OCO2,·,54.4,–,–,–,–
CO[C@H]1CN(C)C(=O)c2cc(NC(=O)C3CCCC3)ccc2OC[C@H](C)N(CC2CC2)C[C@@H]1C,·,·,–,–,–,·
S=C(Nc1nc2c(s1)CCCC2)NC1CC1,–,–,50.9,–,–,–
O=C(NC(=S)Nc1nc2c(s1)CCCC2)c1ccccc1,–,–,·,–,–,–
O=C(NC1CCC1)[C@H]1[C@H](CO)[C@H]2Cn3c(ccc(/C=C/c4ccccc4)c3=O)[C@H]2N1Cc1ccncc1,·,·,–,·,–,–
COc1cc(Cl)ccc1OCc1cc(C(=O)N2CCCC(OC)C2)no1 (stereo unspecified),–,45.2,75.1,–,–,–
CCCN1CCN(C(=O)c2cc(COc3ccc(F)c(F)c3)on2)CC1,–,–,?,–,–,–
COc1cc(Cl)ccc1OCc1cc(C(=O)N2CCN(C)CC2)no1,–,–,–,–,–,–
SMILES,MITF TRPM1 HTS,Wnt bcat act,esBAF inh,UUG fidelity,PglD inh,miR-122 sensor
COc1cc(Cl)ccc1OCc1cc(C(=O)N2CCCCCC2)no1,–,–,44.9,–,–,–
CCCOC1CCCN(C(=O)c2cc(COc3ccc(F)c(F)c3)on2)C1 (stereo unspecified),90.4,–,47.1,–,–,–
COc1cccc(C#Cc2cnc3c(c2)C(=O)N([C@H](C)CO)C[C@H](C)[C@H](CN(C)C(=O)C2CCC2)O3)c1,·,·,–,–,–,–
C[C@@H]1CN([C@@H](C)CO)C(=O)c2cc(NC(=O)CCC(F)(F)F)ccc2O[C@@H](C)CCCCO[C@H]1CN(C)C(=O)NC1CCCCC1,·,·,–,–,–,–
Fc1ccc(-c2nc3nc4ccccc4nc3n2Cc2ccco2)cc1,–,?,64.0,–,–,–
c1ccc(-c2nc3nc4ccccc4nc3n2Cc2ccco2)cc1,–,44.0,·,–,–,–
O=C(CCc1nnc(C2CCCCC2)o1)N1CCN(C2CCCCC2)CC1,–,–,·,·,·,–
CN(CCC1CCCCO1)C(=O)CCc1nnc(C2CCCCC2)o1 (stereo unspecified),–,–,54.8,·,·,–
O=C(CN1CCOCC1)NCC[C@H]1CC[C@H](NC(=O)Nc2ccc(Cl)cc2)[C@@H](CO)O1,·,·,–,–,–,·
COCC(=O)N(C)C[C@H]1Oc2cc(-c3ccc(C)cc3)ccc2S(=O)(=O)N([C@@H](C)CO)C[C@@H]1C,·,·,–,–,–,–
CN(C)CCSc1nnc(-c2ccccc2)o1,·,–,–,–,–,–
CN(C)c1cccc(-c2nnc(SCCCC#N)o2)c1,–,40.7,–,–,–,–
Cc1noc(C)c1S(=O)(=O)Nc1cccc2c1O[C@H](CN(C)C(=O)NC(C)C)[C@H](C)CN([C@@H](C)CO)C2=O,·,·,–,–,–,–
CN(C)/C=N/NC(=O)c1ccc(Cl)cc1,–,–,·,–,–,–
CN(C)/C=N/c1cnc(C(=O)c2ccc(Cl)cc2)n1C,?,·,45.4,–,–,–
CC=Cc1ccc2n(c1=O)C[C@H]1[C@H](CO)[C@@H](C(=O)NCC3CCCCC3)[C@@H]2N1C(C)=O (mixture of isomers),·,·,–,·,–,·
Cc1ccc(NS(=O)(=O)c2ccc(-n3cccn3)cc2)cc1C,–,–,–,–,–,–
COc1cc(NS(=O)(=O)c2ccc(-n3cccn3)cc2)cc(OC)c1,·,·,–,–,–,95.2
COc1ccccc1CN(C)C(=O)C1COc2ccccc2O1 (stereo unspecified),·,39.0,–,–,–,–
Cc1ccc(NC(=O)CN(C)C(=O)C2COc3ccccc3O2)cc1 (stereo unspecified),–,–,·,·,·,·
c1ccc(-c2nc(-c3ccncc3)no2)cc1,–,·,–,–,–,–
c1csc(-c2nc(-c3ccc(-c4ccon4)s3)no2)c1,–,41.7,·,·,·,·
Cc1ccc(-c2noc(-c3cccs3)n2)cc1,–,–,–,–,–,–
c1ccc(-c2nc(-c3ccc(-c4ccon4)s3)no2)cc1,–,35.8,53.4,–,–,–
O=C(Cc1ccc(Cl)cc1)Nc1ncc([N+](=O)[O-])s1,–,–,·,·,·,·
SMILES,MITF TRPM1 HTS,Wnt bcat act,esBAF inh,UUG fidelity,PglD inh,miR-122 sensor
O=C(COc1ccc(Cl)cc1)Nc1ncc([N+](=O)[O-])s1,–,37.8,·,·,·,·
O=C(Nc1ccccc1)ON=C1CCCC1,–,–,·,–,–,–
Cc1ccc(NC(=O)ON=C2CCCC2)cc1,96.5,–,·,·,·,·
O=C(Nc1ccc(OC(F)F)c(Cl)c1)C(c1ccccc1)c1ccccc1,–,·,·,·,·,·
O=C(Cc1cccc2ccccc12)Nc1ccc(OC(F)F)c(Cl)c1,–,·,·,–,–,94.0
COc1ccc(CN(C)C[C@@H]2OCCCC[C@H](C)Oc3ccc(NS(=O)(=O)c4ccc(C)cc4)cc3C(=O)N([C@H](C)CO)C[C@@H]2C)cc1,·,·,–,–,–,–
